PMC6128740 (European journal of drug metabolism and pharmacokinetics, 2018)
Where two headings read alike, the source gives them in different places.

Assays:
[1] = Tissue distribution of 14C-C3 in mice; type: in vivo, C57BL/6J mice
[2] = design: species or system Macaca fascicularis; settings: cynomolgus monkey, in vivo
[3] = mouse, in vivo
[4] = test system: Macaca fascicularis monkeys; settings: monkeys treated for two months, n=5
[5] = Kinetics of 14C-C3 in mouse blood after bolus or osmotic pump administration; settings: 1.1 mg/kg
[6] = 144 hr after single i.p. 1.1 mg/kg

## e,e,e, tris malonic acid C60 [C3]
[1]; [6]
  radioactivity remaining in each kidney: about 2.2 % of the dose
  radioactivity remaining in the whole liver: about 10.6 % of the administered dose
[1]; even with chronic administration
  C3 in bone: only trace amounts
[2]
  plasma half-life: 8 ± 1 h
[3]
  plasma half-life: 8.2 ± 0.2 h
mice, after 7 days of treatment
  metabolism of the compound: minimal metabolism
Plasma 2 h and 18 h after single 1.1 mg/kg i.p.
  HPLC radiochromatogram of plasma vs original stock (in vivo stability): essentially identical to the original C3 stock
mice; chronic delivery for 2 months
  LD50: > 30 mg/kg/day
mice; chronic delivery of 30 mg/kg/day for 2 months
  deaths: no deaths
mice; single i.p. injection
  LD50: 80 mg/kg
[4]; mean ± SD
  EKG interval PR: 0.08 ± .00 s
  EKG interval Q-T: 0.20 ± .04 s
[4]
  Heart Rate (range): 83–103 bpm
[5]; i.p.
  k (first order rate constant): 0.087 ± 0.007 h⁻¹
[5]; i.v.
  k (first order rate constant): 0.085 ± 0.002 h⁻¹
[5]; i.v.0-1: data within the first hour after i.v. injection
  t1/2: 0.8 ± 0.1 h
[5]; i.v.0-1: first hour after i.v. injection
  k (first order rate constant): 0.90 ± 0.12 h⁻¹
